Results on one compound are retold here after publication PMC7765948, “Spadin Modulates Astrocytic Passive Conductance via Inhibition of TWIK-1/TREK-1 Heterodimeric Channels” (International Journal of Molecular Sciences, 2020).

One experiment relates to TRESK. Conditions: heterologous systems; cited from earlier work. An excerpt: (§1) The activity of TWIK-1 homodimeric channels was not modulated by spadin, but concatenated TWIK-1-TREK-1 heterodimeric channels were inhibited (Figure 5). Since K2P heterodimeric channels are known to be regulated by regulators specific only for single subunit isoforms, even if the TWIK ...
A further experiment has as its system TASK-1. Conditions: heterologous systems; cited from earlier work.
Description: as §1

The subject of experiment [1] is TREK-1. The note with it: cited from earlier work. The protocol: Because of the typical linear I–V relationship of astrocytic passive conductance, it has been speculated that astrocytic passive conductance is carried by non-voltage-gated K^+ channels.
The test system of experiment [2] is TREK-1. Put plainly: Whole-cell currents in COS-7 cells expressing TREK-1. The note with it: +50 mV, 10 µM spadin, bath pH 7.4, 20–22 °C. It is filed as cell-based, mouse. On the procedure: (§2) cDNAs encoding for full-length mouse TREK-1 (GenBank accession no. NM_010607) and mouse TWIK-1 (NM_008430) were obtained by using an RT–PCR based gateway cloning (ThermoFisher, Waltham, MA, USA). TWIK-1 K274E mutant was generated using full-length cDNA as templates via the EZchange site-directed mutagenesis kit (Enzynomics, Daejeon, Korea). All constructs were cloned into pDEST-IRES2-GFP vectors by gateway cloning. […]
(§3) Current–voltage (I–V) curves were recorded from COS-7 cells expressing TWIK-1 K274E, TREK-1 or concatenated TWIK-1-TREK-1-IRES2-GFP. […] The I–V relations were measured by applying 1-s ramp pulses (from −150 mV to +50 mV) from a holding potential of −60 mV. […] Currents were analyzed with Clampfit software (Axon instruments, Union City, CA, USA). […]
(§4) All data are presented as means ± standard error of the mean (s.e.m). The significance of data for comparison was assessed by Student’s t-test (paired t-test) or one-way ANOVA followed by Turkey’s post hoc test, and significance levels are given as: n.s: not significant, * p < 0.05, ** p < 0.01, *** p < 0.001, and **** p < 0.0001. […]

Another experiment relates to TWIK-1(K274E). Put plainly: Whole-cell currents in COS-7 cells expressing TWIK-1(K274E). The format is cell-based, mouse. The note with it: −150 mV, 10 µM spadin. On the procedure: as §2, §3, §4

Turning to `CC[C@H](C)[C@H](NC(=O)[C@@H]1CCCN1C(=O)CNC(=O)[C@H](CO)NC(=O)[C@H](Cc1c[nH]c2ccccc12)NC(=O)[C@H](CCCNC(=N)N)NC(=O)[C@@H]1CCCN1C(=O)[C@H](CC(C)C)NC(=O)[C@@H]1CCCN1C(=O)[C@H](C)NC(=O)[C@@H](N)Cc1ccc(O)cc1)C(=O)NCC(=O)N[C@H](C(=O)N[C@@H](CO)C(=O)N[C@@H](Cc1c[nH]c2ccccc12)C(=O)NCC(=O)N[C@@H](CC(C)C)C(=O)N[C@@H](CCCNC(=N)N)C(=O)O)C(C)C` [spadin], the “effect on TRESK” value in the experiment on TRESK is “does not affect”. Moreover, in the experiment on TASK-1, the “effect on TASK-1” value is “does not affect”. For the same compound, the “effect of spadin on TREK-1 activity in presence of arachidonic acid” value in the experiment on TREK-1 [1] (arachidonic acid (AA)) is listed as “enhanced by arachidonic acid (AA)”. Further, the TREK-1 channel inhibition entry in the experiment on TREK-1 [1] (heterologous systems) was “dramatically inhibits”. The “inhibition of TREK-1-mediated K^+ conductance” value in the experiment with TREK-1 [2] is given as “about 50%”. Moreover, the “TWIK-1(K274E)-mediated currents with spadin” value in the experiment on TWIK-1(K274E) was “not affected”.
